Like-named read-outs stand apart in the source and are kept apart here.
How the values were obtained:
[1] = target: T1, aggregated 4R-tau in CBD tissue (Homo sapiens, UniProt P10636); assay: In vitro competition (Ki) assay, CBD brain tissue homogenate; type: binding
T1 construct: autopsy-confirmed postmortem AD, PSP, and CBD human brain tissues; tissue UCSF Neurodegenerative Disease Brain Bank; host or cells: post-mortem human CBD brain homogenate

Sequences of proteins named here, by UniProt entry; tags and fusion partners are left off. Residues count along the entry.
UniProt P10636, 1-410 isoform P10636-5: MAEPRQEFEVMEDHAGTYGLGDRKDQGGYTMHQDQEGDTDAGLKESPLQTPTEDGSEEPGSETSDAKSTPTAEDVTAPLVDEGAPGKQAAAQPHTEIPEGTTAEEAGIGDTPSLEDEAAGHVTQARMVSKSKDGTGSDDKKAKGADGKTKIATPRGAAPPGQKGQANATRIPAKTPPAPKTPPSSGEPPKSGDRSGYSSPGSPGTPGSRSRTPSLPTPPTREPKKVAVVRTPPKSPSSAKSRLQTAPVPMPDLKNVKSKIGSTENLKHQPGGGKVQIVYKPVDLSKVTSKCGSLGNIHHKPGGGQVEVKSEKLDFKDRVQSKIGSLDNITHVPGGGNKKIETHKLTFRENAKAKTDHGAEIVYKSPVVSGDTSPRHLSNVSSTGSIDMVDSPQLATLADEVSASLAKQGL
UniProt P10636, 1-441 isoform P10636-8 P301L: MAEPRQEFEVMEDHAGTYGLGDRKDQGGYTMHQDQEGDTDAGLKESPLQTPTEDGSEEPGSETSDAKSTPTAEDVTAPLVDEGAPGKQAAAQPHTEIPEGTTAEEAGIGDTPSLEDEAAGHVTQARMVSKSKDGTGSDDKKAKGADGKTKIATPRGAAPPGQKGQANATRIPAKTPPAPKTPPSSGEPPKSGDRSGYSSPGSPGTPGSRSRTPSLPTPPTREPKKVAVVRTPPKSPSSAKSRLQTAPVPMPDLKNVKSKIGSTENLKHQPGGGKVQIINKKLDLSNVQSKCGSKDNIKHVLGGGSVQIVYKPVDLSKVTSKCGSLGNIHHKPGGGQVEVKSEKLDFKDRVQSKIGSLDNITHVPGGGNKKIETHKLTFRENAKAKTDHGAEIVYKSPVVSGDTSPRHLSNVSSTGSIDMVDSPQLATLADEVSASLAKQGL
UniProt P05067, 672-713 limits assumed: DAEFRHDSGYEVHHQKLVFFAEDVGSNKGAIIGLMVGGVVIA

[2] = target: T2, aggregated 4R-tau in AD tissue (Homo sapiens, UniProt P10636); assay: In vitro competition (Ki) assay, AD brain tissue homogenate; type: binding
T2 construct: autopsy-confirmed postmortem AD, PSP, and CBD human brain tissues; tissue UCSF Neurodegenerative Disease Brain Bank; host or cells: post-mortem human AD brain homogenate

[3] = target: T3, aggregated 4R-tau in PSP tissue (Homo sapiens, UniProt P10636); assay: In vitro competition (Ki) assay, PSP brain tissue homogenate; type: binding
T3 construct: autopsy-confirmed postmortem AD, PSP, and CBD human brain tissues; tissue UCSF Neurodegenerative Disease Brain Bank; host or cells: post-mortem human PSP brain homogenate

[4] = target: T4, aggregated 4R-tau in PSP brain (Homo sapiens, UniProt P10636); assay: Binding affinity (Kd) assay, PSP brain homogenate; details: PSP tissue; Table 7 (n = 4); read-out: KD (homologous binding assay)
T4 construct: aggregated 4R-tau in human brain tissue samples from AD, PSP, and CBD patients; from tissue; host or cells: homogenized cortex of human PSP brain

[5] = target: T5, aggregated 4R-tau in CBD brain (Homo sapiens, UniProt P10636); assay: Binding affinity (Kd) assay, CBD brain homogenate; details: CBD tissue; Table 7 (n = 4); read-out: KD (homologous binding assay)
T5 construct: aggregated 4R-tau in human brain tissue samples from AD, PSP, and CBD patients; from tissue; host or cells: homogenized cortex of human CBD brain

[6] = target: T6, P301L mouse brain tissue (Homo sapiens, UniProt P10636, P618L); assay: Homologous binding assay, P301L mouse brain tissue; details: Table 7 (n = 4)
T6 construct: from tissue; host or cells: brain tissue of P301L mouse

[7] = target: T7, Pick's Disease brain tissue (Homo sapiens, UniProt P10636); assay: Homologous binding assay, Pick's Disease brain tissue; details: Table 7 (n = 4)
T7 construct: post-mortem human AD, PSP, CBD, and Pick's Disease brain tissue; from tissue; host or cells: post-mortem human Pick's Disease brain

[8] = target: T8, aggregated 4R-tau in AD brain (Homo sapiens, UniProt P10636); assay: Binding affinity (Kd) assay, AD brain homogenate; details: AD tissue; Table 7 (n = 4); read-out: KD (homologous binding assay)
T8 construct: aggregated 4R-tau in human brain tissue samples from AD, PSP, and CBD patients; from tissue; host or cells: homogenized cortex of human AD brain

[9] = Brain PET imaging studies in rhesus macaques (brain uptake and washout); type: in vivo; details: rhesus macaque PET
Protocol: Brain uptake and washout of [^8F]68 (FIG. 5) and [^8F]69 (FIG. 6) was evaluated by brain PET imaging studies in rhesus macaques. The 2-minute to 60-minute ratios of [^18F]68 were 1.2 (whole brain), 1.3 (cortex), and 2.0 (cerebellum). The 2-minute to 60-minute ratios of [^18F]69 were 3.0 (whole brain), 3.7 (cortex), and 3.8 (cerebellum).

[10] = target: T9, PiB binding site on amyloid-beta (Homo sapiens, UniProt P05067); assay: Competition against [^3H]PiB in post-mortem human AD brain tissue; details: vs. [^3H]PiB, Table 7 (n = 4)
T9 construct: from tissue; host or cells: post-mortem human AD brain

[11] = vs [^3H]2, n = 1, Ki=IC50/2, read-out: Inhibition Constant (Ki) versus [^3H]2
[12] = vs [^3H]1, n = 1, Ki=IC50/2, read-out: Inhibition Constant (Ki) versus [^3H]1

Compound	Ki [1, 11] [µM]	Ki [2, 11] [µM]	Ki [3, 11] [µM]	Ki [1, 12] [µM]	Ki [2, 12] [µM]	further results
Fc1cc(-c2cc3ccccc3[nH]2)cnc1N1CCCCC1 [Compound 89, 2-(5-Fluoro-6-(piperidin-1-yl)pyridin-3-yl)-1H-indole]	0.014	0.016	0.017			
Fc1ccc2cc(-c3cc(F)c(N4CCOCC4)cn3)[nH]c2c1 [Compound 100, 4-(4-Fluoro-6-(6-fluoro-1H-indol-2-yl)pyridin-3-yl)morpholine]	0.056	0.115	0.065			
Fc1cc(N2CCOCC2)ncc1-c1cc2ccccc2[nH]1 [Compound 88, 4-(4-Fluoro-5-(1H-indol-2-yl)pyridin-2-yl)morpholine]	0.012	0.013	0.015			
COC1CCN(c2ncc(-c3cc4ccc(F)cc4[nH]3)cn2)CC1 [Compound 36, 6-Fluoro-2-(2-(4-methoxypiperidin-1-yl)pyrimidin-5-yl)-1H-indole]	0.014	0.0095	0.01	0.0082	0.005	
Fc1cc(N2CCCCC2)cnc1-c1cc2ccccc2[nH]1 [Compound 92, 2-(3-Fluoro-5-(piperidin-1-yl)pyridin-2-yl)-1H-indole]	0.016	0.015	0.02			
O=C1CCN(c2ncc(-c3cc4ccc(F)cc4[nH]3)cn2)CC1 [Compound 38, 1-(5-(6-Fluoro-1H-indol-2-yl)pyrimidin-2-yl)piperidin-4-one]	0.015		0.014	0.017	0.012	Ki [3, 12]: 0.013 µM
Fc1nc(N2CCOCC2)ccc1-c1cc2ccccc2[nH]1 [[^3H]69]						Kd [4]: 0.0023 ± 0.0006 µM; Kd [5]: 0.0025 ± 0.0003 µM; Kd [6]: 0.0028 ± 0.0007 µM; Kd [7]: 0.0033 ± 0.0003 µM; Kd [8]: 0.0015 ± 0.0004 µM
Fc1ccc2cc(-c3ccc(N4CCCCC4)nc3F)[nH]c2c1 [Compound 75, 6-Fluoro-2-(2-fluoro-6-(piperidin-1-yl)pyridin-3-yl)-1H-indole]	0.026	0.029	0.034			
Fc1cc(-c2cc3ccccc3[nH]2)ncc1N1CCOCC1 [Compound 99, 4-(4-Fluoro-6-(1H-indol-2-yl)pyridin-3-yl)morpholine]	0.049	0.05	0.044			
Fc1ccc2cc(-c3ccc(N4CCOCC4)nc3)[nH]c2c1 [Compound 40, 4-(5-(6-Fluoro-1H-indol-2-yl)pyridin-2-yl)morpholine]	0.012	0.013		0.011	0.0095	Ki [3, 12]: 0.0079 µM
Fc1ccc2[nH]c(-c3ccc(N4CCOCC4)nc3)cc2c1 [Compound 73, 4-(5-(5-fluoro-1H-indol-2-yl)pyridin-2-yl)morpholine]	0.0077	0.005	0.0063			
Fc1ccc2cc(-c3cnc(N4CCOCC4)c(F)c3)[nH]c2c1 [Compound 84, 4-(3-Fluoro-5-(6-fluoro-1H-indol-2-yl)pyridin-2-yl)morpholine]	0.018	0.024	0.02			
FCCOCCOC1CCN(c2ncc(-c3cc4ccccc4[nH]3)cn2)CC1 [Compound 102, 2-(2-(4-(2-(2-Fluoroethoxy)ethoxy)piperidin-1-yl)pyrimidin-5-yl)-1H-indole]	0.03	0.02	0.023	0.039	0.019	
Fc1ccc2[nH]c(-c3cnc(N4CCOCC4)nc3)cc2c1 [Compound 72, 4-(5-(5-Fluoro-1H-indol-2-yl)pyrimidin-2-yl)morpholine]	0.01	0.0092	0.0095			
Fc1ccc2cc(-c3cnc(N4CCCCC4)c(F)c3)[nH]c2c1 [Compound 83, 6-Fluoro-2-(5-fluoro-6-(piperidin-1-yl)pyridin-3-yl)-1H-indole]	0.0087	0.0075	0.0078			
Fc1ccc2cc(-c3cnc(N4CCCCC4)nc3)[nH]c2c1 [Compound 15, 6-Fluoro-2-(2-(piperidin-1-yl)pyrimidin-5-yl)-1H-indole]	0.012	0.0077	0.0092	0.0063	0.0035	Ki [3, 12]: 0.0062 µM
Fc1ccc2cc(-c3cnc(N4CCOCC4)cn3)[nH]c2c1 [Compound 81, 4-(5-(6-Fluoro-1H-indol-2-yl)pyrazin-2-yl)morpholine]	0.0082	0.008	0.0073			
Fc1cc(-c2cc3ccccc3[nH]2)cnc1N1CCOCC1 [Compound 90, 4-(3-Fluoro-5-(1H-indol-2-yl)pyridin-2-yl)morpholine]	0.0095	0.0079	0.0086			
Fc1ccc2cc(-c3ccc(N4CCCCC4)nc3)[nH]c2c1 [Compound 39, 6-fluoro-2-(6-(piperidin-1-yl)pyridin-3-yl)-1H-indole]	0.0059	0.0049	0.0052	0.0062		Ki [3, 12]: 0.0046 µM
[18F]c1nc(N2CCOCC2)ccc1-c1cc2ccccc2[nH]1 [[^18F]69, 4-(6-[^18F]Fluoro-5-(1H-indol-2-yl)pyridin-2-yl)morpholine]						2-minute to 60-minute ratio, cerebellum ([9]; cerebellum): 3.8; 2-minute to 60-minute ratio, cortex ([9]; cortex): 3.7; 2-minute to 60-minute ratio, whole brain ([9]; whole brain): 3.0
Fc1cc(N2CCOCC2)cnc1-c1cc2ccccc2[nH]1 [Compound 97, 4-(5-Fluoro-6-(1H-indol-2-yl)pyridin-3-yl)morpholine]	0.022	0.021	0.025			
Fc1ccc2cc(-c3cnc(N4CC[C@@H](F)C4)nc3)[nH]c2c1 [(R)-Compound 37, (R)-6-Fluoro-2-(2-(3-fluoropyrrolidin-1-yl)pyrimidin-5-yl)-1H-indole]	0.02	0.017	0.023	0.015	0.016	Ki [3, 12]: 0.014 µM
Fc1nc(N2CCOCC2)ccc1-c1cc2ccccc2[nH]1 [Compound 69, 4-(6-Fluoro-5-(1H-indol-2-yl)pyridin-2-yl)morpholine]	0.011	0.0065		0.013	0.0092	Ki [10]: 0.061 ± 0.003 µM; Ki [3, 12]: 0.01 µM
